IC50 data for one compound are collected here from US20240327356A1, “PYRIMIDINE BASED RAS MODULATORS AND USES THEREOF” (QUANTA THERAPEUTICS, INC., priority 2021, published 2024).

This test deals with Phospho-ERK (Thr202/Tyr204) in MiaPaCa-2 cells. As to the kind of experiment: pERK inhibition in MiaPaca-2 cell line (HTRF). Conditions: read-out: MiaPaca-2 pERK IC50, 1 hour incubation with compound. How it is done:
MiaPaCa-2 cells (ATCC CRL-1420) were cultured in high glucose DMEM (Gibco 11965092) containing 10% fetal bovine serum (Gibco 1993708) and 1× Penicillin/Streptomycin, at 37° C. in a humid atmosphere of 5% CO2 in the air. Cells were plated in tissue-culture treated 96-well plates at a density of 10,000 cells/well and allowed to attach for 16 hours. The medium was then removed, and diluted compounds were added in a final concentration of 0.5% DMSO. After 1 hour of incubation, cells were lysed by the lysis buffer supplied with the Phospho-ERK (Thr202/Tyr204) cellular HTRF kit (Cisbio 64ERKPEH) and transferred to a 384-well low-volume white plate (PerkinElmer 6008280). The cell lysates were treated with the detection reagents supplied with the HTRF kit for 4 hours at ambient temperature in darkness. Two fluorescence intensities at the wavelengths (665 and 620 nm) were measured by the Envision plate reader (Perkin Elmer), and the data were processed and fitted to a 4-parameter logistic model for IC50 calculation (GraphPad Prism 9).
For orientation: TR-FRET usually uses a lanthanide donor and a delayed reading to cut background.

Structures are written as SMILES.

For the compound `Cc1ccc(-c2ncc(CNC(=O)C3(F)CC3)c(N3[C@@H]4CC[C@H]3C[C@H](N)C4)n2)cc1Cl`, the IC50 was 1 to 10 µM.

Usually IC50 stands for the concentration that gives 50% inhibition.
